One data set concerns cornea. The protocol:
Siena for Medical Science supplied porcine eyes from 3-4 month old swine. Eyes were stored in ocular balanced saline solution on ice until use within 48 hours post mortem. […] The epithelial cell layer was removed by scraping with a scalpel. […] The drug solution containing the eye was gently agitated using a rocker for a specified “drug contact time” (tc,cornea ranging from 0 to 4 hours). After the drug contact time, the eye was removed from the drug solution, and excess solution on the cornea was dabbed away with a Kimwipe. The eye was dissected using a scalpel blade and a pair of scissors to cut around the corneoscleral limbus to separate out the cornea. […]
Quantitative assay of the amount of drug delivered—Experiments were performed for five drug contact times (four samples each): for the cornea, tc,cornea=0.25, 0.5, 1, 2, and 4 hrs, and for the sclera, tc,sclera=0.5, 2, 4, 7.5, and 120 hrs. […]
(§1) The concentration of the drug in the extract was determined using fluorimetry. […] The fluorescence of each extract was measured and concentration was determined based on calibration curves prepared for each compound using a series of solutions with known concentrations. The extraction process was repeated using successively longer extraction times until there was no detectable fluorescence in the supernatant. […]

Another data set relates to sclera.
Source text: Orbital tissues were removed with scissors to expose the sclera. […] After the contact time, the eye was removed from the drug solution, and excess solution on the sclera was dabbed away with a Kimwipe. The eye was dissected using a scalpel blade and a pair of scissors to obtain a posterior scleral section on the temporal side near the optic nerve. The tissue section was placed onto a trephine punch to cut out a 9.5-mm diameter cross-section.
Quantitative assay of the amount of drug delivered—Experiments were performed for five drug contact times (four samples each): for the cornea, tc,cornea=0.25, 0.5, 1, 2, and 4 hrs, and for the sclera, tc,sclera=0.5, 2, 4, 7.5, and 120 hrs. Each experiment was repeated four times. […]
as §1

Calculated permeability and permeability data for one substance are collected here from US20150359668A1, “LIGHT DELIVERY DEVICE AND RELATED COMPOSITIONS, METHODS AND SYSTEMS” (CALIFORNIA INSTITUTE OF TECHNOLOGY, priority 2011, published 2015).

As for riboflavin-5′-monophosphate, in the data set with cornea, the calculated permeability is 0.16 μm/s. This substance also returned a permeability in the data set on sclera of 0.050 μm/s.
